This note sets out measurements from publication PMC2363545 (British Journal of Cancer, 2000).

Protein sequences, listed by entry. Tags and fused reporters are not part of them. Residues count along the entry.
UniProt P01344, 25-180: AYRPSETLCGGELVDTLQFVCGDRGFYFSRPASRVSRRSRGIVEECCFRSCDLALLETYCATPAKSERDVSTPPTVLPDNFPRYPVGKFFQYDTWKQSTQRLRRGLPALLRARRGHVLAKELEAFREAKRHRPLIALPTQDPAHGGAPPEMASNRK

Assay [1] has as its target IGF-II (Homo sapiens, UniProt P01344).
The test system of assay [2] is B16 murine melanoma cells.
The subject of assay [3] is premature ovarian failure. Conditions: in vivo.

Take Insulin: in assay [1], the “binding to IGF2R constructs” value is “did not bind”.
Take Ro 31-8220: the “effect on -MSH-induced melanogenesis” value in assay [2] is given as “significantly (P<0.05) inhibit”.
Turning to goserelin, in assay [3], the “patients with biochemical evidence of premature ovarian failure” value is “five” and the “prevention of chemotherapy-induced premature ovarian failure” value is “did not prevent”.
